The results in this text go back to PMC13626057, “Sensitizing tumor response to topoisomerase I antibody-drug conjugate by selective CDK7 inhibition” (Science Advances, 2026).

The chains behind the UniProt entries cited, without tags or fusion partners.
UniProt P50613, whole entry: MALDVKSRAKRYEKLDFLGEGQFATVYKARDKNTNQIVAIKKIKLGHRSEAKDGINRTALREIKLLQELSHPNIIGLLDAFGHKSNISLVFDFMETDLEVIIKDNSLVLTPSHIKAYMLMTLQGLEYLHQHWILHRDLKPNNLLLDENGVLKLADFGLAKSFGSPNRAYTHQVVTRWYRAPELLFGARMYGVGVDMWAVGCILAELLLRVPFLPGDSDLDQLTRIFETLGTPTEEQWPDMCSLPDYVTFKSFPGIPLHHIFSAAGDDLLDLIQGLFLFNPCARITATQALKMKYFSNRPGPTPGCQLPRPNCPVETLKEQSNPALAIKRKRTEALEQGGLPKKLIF
UniProt P51946, whole entry partner: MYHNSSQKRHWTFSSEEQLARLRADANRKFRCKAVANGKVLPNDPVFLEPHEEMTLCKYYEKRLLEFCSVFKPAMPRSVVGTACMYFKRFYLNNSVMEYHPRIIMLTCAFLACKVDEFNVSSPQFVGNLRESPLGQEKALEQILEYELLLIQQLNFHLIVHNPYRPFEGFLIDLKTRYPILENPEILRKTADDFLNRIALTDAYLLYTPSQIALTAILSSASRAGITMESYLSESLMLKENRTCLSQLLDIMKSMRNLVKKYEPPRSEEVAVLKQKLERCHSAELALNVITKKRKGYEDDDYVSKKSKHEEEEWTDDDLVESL
UniProt P51948, whole entry partner: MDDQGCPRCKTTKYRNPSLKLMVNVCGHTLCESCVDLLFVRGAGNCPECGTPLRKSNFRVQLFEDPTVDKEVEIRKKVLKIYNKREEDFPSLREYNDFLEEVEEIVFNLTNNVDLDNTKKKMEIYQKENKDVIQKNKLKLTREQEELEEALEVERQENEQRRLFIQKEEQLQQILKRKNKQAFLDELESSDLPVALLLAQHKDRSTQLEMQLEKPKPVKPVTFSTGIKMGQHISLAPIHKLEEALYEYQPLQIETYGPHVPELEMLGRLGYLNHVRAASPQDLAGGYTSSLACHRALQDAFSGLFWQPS

The experiment concerns the target recombinant human CDK7/cyclin H/MNAT1 (Homo sapiens, UniProt P50613). Nature of the experiment: LANCE Ultra TR-FRET CDK7 kinase assay (cell-free enzymatic assay). Particulars: read-out: IC50 against CDK7, eight-point dilution, top 3000 nM.

For the compound `CC(F)C(=O)Nc1ccc2c(-c3ccccc3CNc3nc(NC[C@H]4CCNC[C@@H]4O)nc4c(C(C)C)cnn34)nccc2c1` (some centres unmarked), the 50% inhibitory concentration (IC50) turned out to be 10 nM.
For `CC(C)c1cnn2c(NCc3ccccc3-c3nccc4cc(N)ccc34)nc(NC[C@H]3CCNC[C@@H]3O)nc12`, the IC50 was 5.51 nM.
